From PubChem BioAssay AID624325 (Sanford-Burnham Center for Chemical Genomics, 2012)
This is a selection; strong and weak results do not stand in their true shares. Active and inactive are the calls of the source.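 Rule for the calls: active = compounds inhibiting the enzyme by at least 50% at 15 µM in any one of the replicates; inactive = the rest.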

Sequences of proteins named here, by UniProt entry; tags and fusion partners are left off.
UniProt P49327, whole entry: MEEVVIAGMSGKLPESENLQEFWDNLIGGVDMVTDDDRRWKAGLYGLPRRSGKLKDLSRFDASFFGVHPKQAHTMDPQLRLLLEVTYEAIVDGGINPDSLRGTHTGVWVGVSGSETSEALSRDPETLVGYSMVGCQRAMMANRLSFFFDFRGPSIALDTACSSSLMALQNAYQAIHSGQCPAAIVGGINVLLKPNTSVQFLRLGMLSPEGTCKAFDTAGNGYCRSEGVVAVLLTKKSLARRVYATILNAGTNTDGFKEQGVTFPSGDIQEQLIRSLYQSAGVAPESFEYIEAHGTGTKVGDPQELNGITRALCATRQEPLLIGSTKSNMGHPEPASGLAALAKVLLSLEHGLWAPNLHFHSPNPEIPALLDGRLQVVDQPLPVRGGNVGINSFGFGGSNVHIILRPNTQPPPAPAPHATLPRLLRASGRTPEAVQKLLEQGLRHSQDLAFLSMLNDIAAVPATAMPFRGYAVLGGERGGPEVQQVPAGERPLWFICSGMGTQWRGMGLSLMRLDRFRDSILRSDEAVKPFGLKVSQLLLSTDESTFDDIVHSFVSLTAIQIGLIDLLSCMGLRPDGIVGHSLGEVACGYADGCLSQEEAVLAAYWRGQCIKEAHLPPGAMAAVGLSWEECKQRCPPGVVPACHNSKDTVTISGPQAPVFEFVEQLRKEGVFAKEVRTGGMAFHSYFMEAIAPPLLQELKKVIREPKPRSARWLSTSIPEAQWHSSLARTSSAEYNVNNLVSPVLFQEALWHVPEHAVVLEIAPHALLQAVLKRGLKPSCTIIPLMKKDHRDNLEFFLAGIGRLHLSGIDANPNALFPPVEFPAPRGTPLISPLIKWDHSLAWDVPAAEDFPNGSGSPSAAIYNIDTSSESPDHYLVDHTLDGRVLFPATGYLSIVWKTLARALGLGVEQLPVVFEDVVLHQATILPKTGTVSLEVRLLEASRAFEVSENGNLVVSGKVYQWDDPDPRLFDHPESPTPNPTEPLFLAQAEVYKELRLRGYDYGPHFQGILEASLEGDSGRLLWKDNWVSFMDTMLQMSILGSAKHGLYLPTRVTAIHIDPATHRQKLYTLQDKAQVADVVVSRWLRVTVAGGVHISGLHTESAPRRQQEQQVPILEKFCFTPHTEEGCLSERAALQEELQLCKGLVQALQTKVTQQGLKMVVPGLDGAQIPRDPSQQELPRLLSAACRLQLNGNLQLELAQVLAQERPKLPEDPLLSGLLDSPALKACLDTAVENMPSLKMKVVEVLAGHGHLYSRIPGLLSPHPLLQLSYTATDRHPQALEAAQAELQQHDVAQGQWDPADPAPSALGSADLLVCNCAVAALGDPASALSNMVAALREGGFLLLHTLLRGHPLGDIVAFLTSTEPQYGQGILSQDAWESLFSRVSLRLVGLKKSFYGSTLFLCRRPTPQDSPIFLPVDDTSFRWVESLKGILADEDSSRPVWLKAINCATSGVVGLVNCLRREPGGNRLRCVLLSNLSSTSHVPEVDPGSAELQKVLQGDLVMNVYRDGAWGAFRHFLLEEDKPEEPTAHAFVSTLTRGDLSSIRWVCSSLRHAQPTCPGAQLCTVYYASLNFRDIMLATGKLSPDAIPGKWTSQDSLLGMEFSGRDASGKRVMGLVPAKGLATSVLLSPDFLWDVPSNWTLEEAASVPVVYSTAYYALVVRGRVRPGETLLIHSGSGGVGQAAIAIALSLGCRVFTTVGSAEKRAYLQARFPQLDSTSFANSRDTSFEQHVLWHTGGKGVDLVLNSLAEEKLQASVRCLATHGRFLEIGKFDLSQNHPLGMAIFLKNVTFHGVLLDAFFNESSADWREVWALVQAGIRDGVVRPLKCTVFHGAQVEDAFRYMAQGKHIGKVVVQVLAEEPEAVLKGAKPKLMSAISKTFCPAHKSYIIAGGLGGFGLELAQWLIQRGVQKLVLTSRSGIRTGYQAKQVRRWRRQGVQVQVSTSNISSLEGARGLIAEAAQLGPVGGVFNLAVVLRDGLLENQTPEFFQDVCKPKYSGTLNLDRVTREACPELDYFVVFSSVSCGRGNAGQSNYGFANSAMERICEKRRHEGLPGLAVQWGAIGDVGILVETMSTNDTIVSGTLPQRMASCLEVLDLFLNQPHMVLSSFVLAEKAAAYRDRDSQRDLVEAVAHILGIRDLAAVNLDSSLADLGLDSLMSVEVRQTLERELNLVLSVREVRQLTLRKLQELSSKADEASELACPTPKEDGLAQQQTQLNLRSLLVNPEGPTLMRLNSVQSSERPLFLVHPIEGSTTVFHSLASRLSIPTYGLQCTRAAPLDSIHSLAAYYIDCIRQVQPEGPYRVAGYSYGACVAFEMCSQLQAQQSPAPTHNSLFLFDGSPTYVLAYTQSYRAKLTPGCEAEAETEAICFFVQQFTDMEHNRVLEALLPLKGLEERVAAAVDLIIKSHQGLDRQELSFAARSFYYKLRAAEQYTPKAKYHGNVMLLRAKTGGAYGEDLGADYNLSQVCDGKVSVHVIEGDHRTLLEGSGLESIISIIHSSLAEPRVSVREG

biological target: Fatty acid synthase (Homo sapiens) (UniProt P49327); assay: FAS thioesterase domain inhibitors, confirmation, biochemical, fluorescence intensity, single concentration (AID 624325); details: recombinant FAS-TE, OMFH fluorogenic substrate, at 15 µM, active compounds read high;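 note: 0% = enzyme with DMSO only and 100% = wells lacking enzyme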

Compound	inhibition
CP(=O)(Nc1ccc(SC(F)(F)F)cc1)Oc1ccc(Cl)cc1 (stereo unspecified)	inactive: 7.93%
